The test system of this data set is immortalized human brain endothelial cell line (hCMEC/D3).

On to “tetramethylrhodamine isothiocyanate (TRITC)-dextran [TRITC-dextran]”, for which the “CNS (+/-)” value is “-”.

The values above are taken from PMC12406253, “Exploration of the Neuromodulatory Properties of Fyn and GSK-3β Kinases Exploiting 7‑Azaindole-Based Inhibitors” (Journal of Medicinal Chemistry, 2025).
